# Measurements published in patent publication US6350740B1, “Transplatinum complexes as cytotoxic and anticancer agents” (Virginia Commonwealth University, priority 2000, dated 2002).
# Test system: A 2780
substance,measurement,value
trans-[PtCl(Me2SO)(pyridine)2]^+,in vitro cytotoxicity compared with parent,equivalent to the parent trans-[PtCl2(pyridine)2]
